From PubChem BioAssay (Tox21)
Only a part is listed here, and it is no random draw. Records with an inconclusive call do not appear. Calls of active or inactive are those of the source. The call rests on the fitted dose curve; in most records, active means well fitted inhibition curve with a large enough effect in the signal ratio in the repeat runs (not every such curve was filed as active); inconclusive means weak or mixed curves, or effect the other way; inactive means no such curve, though single readings can be large or run the other way; the % refers to the signal ratio.

Protein sequences, listed by entry. Tags and fused reporters are not part of them.
UniProt Q03181, whole entry: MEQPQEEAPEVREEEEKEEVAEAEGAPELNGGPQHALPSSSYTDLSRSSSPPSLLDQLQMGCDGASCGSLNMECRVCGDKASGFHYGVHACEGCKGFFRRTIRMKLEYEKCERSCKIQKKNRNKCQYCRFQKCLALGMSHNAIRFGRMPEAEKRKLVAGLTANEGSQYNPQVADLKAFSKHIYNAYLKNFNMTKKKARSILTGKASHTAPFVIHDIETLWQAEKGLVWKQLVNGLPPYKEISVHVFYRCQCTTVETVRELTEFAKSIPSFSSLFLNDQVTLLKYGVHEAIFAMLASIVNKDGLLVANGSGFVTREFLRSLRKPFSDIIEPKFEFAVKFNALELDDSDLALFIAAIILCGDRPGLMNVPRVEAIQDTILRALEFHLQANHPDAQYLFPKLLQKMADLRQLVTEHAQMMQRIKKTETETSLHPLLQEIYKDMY

Molecular target: Peroxisome proliferator-activated receptor delta (Homo sapiens) (UniProt Q03181)
Test: qHTS assay to identify small molecule antagonists of the peroxisome proliferator-activated receptor delta (PPARd) signaling pathway (AID 743215);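 further: cells stimulated with agonist L165041 at 300 nM final during compound exposure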
Conditions: HEK293H PPARd-UAS-bla, beta-lactamase FRET ratio, antagonist, 17 h; at 62 µM (top of the series)
Description: U.S. Tox21 Program National Center for Advancing Translational Sciences [NCATS] NIH Chemical Genomics Center [NCGC] U.S. Environmental Protection Agency [EPA] National Institutes of Environmental Health Sciences [NIEHS] National Toxicology Program [NTP] U.S. Food and Drug Administration [FDA] Tox21 Assay Overview: The peroxisome proliferator-activated receptors (PPARs) are lipid-activated transcription factors of the nuclear receptor superfamily with three distinct subtypes namely PPAR alpha, PPAR delta (PPARd) and PPAR gamma. All these subtypes heterodimerizes with Retinoid X receptor (RXR) and have different physiological functions. […] To identify the compounds that inhibit PPAR-delta signaling, GeneBLAzer PPAR delta UAS-bla HEK293H cell line (Invitrogen, Carlsbad, CA, USA) containing a beta-lactamase reporter gene under the control of an Upstream Activator Sequence (UAS) was used to screen the Tox21 compound library.
Tox21 Assay Protocol Summary: PPARd-bla cells were dispensed at 3000 cells/5uL/well in 1536-well black wall/clear bottom plates using a Multidrop Combi (Thermo Fisher Scientific, Waltham, MA) dispenser. After the assay plates were incubated at 37 C and 5% CO2 for 5 h, 23 nL of compounds dissolved in DMSO, positive controls or DMSO only was transferred to the assay plate by a Pintool station (Kalypsys, San Diego, CA), followed by addition of 1ul L165041 (300 nM, final concentration in the wells). The assay plates were incubated at 37 C for 17 h, and then 1 uL of LiveBLAzerTM B/G FRET substrate was added using a Bioraptr Flying Reagent Dispenser (FRD) workstation (Beckman Coulter, Indianapolis, IN, USA). The assay plates were incubated at room temperature for 2 h and fluorescence intensity was measured by an Envision plate reader (PerkinElmer, Shelton, CT).
On the % scale 0 is the no-effect control and ±100 the full control effect.

| SMILES | ratio activity, negative = inhibition |
| --- | --- |
| [NH4+].[O-][Cl+3]([O-])([O-])[O-] | inactive: -10.1% |
| COP(C)(=O)OC | inactive: -8.07% |
| OCCSCCO | inactive: 2.48% |
| CP(=O)(O)OCCC[Si](O)(O)O | inactive: 6.01% |
| COc1ccc([N+](=O)[O-])cc1[N+](=O)[O-] | inactive: 10.9% |
| O=[N+]([O-])OCC(CO[N+](=O)[O-])(CO[N+](=O)[O-])CO[N+](=O)[O-] | inactive: 1.71% |
| C/C1=C2N=C(/C=C3N=C(/C(C)=C4\[N-][C@@](C)([C@@H]5N=C1[C@](C)(CCC(=O)NC[C@@H](C)OP(=O)([O-])O[C@H]1[C@@H](O)[C@@H](n6cnc7cc(C)c(C)cc76)O[C@@H]1CO)[C@H]5CC(N)=O)[C@@](C)(CC(N)=O)[C@@H]4CCC(N)=O)[C@@](C)(CC(N)=O)[C@@H]\3CCC(N)=O)C(C)(C)[C@@H]/2CCC(N)=O.[C-]#N.[Co+3] | inactive: -3.62% |
| CCOC(=O)Cl | inactive: -11.7% |

Same assay, conditions: HEK293H PPARd-UAS-bla, beta-lactamase FRET ratio, antagonist, 17 h; at 80.4 µM (top of the series)

| SMILES | ratio activity, negative = inhibition |
| --- | --- |
| [NH4+].[O-][Cl+3]([O-])([O-])[O-] | inactive: -0.572% |
| COP(C)(=O)OC | inactive: -6.76% |
| OCCSCCO | inactive: -2.09% |
| N=C(N)N[N+](=O)[O-] | inactive: -0.446% |
